We go through 25 compounds from PubChem BioAssay AID504462 (Sanford-Burnham Center for Chemical Genomics, 2011).

Chains of the proteins cited; added tags and fusions are not shown.
UniProt Q9Y4P1, whole entry: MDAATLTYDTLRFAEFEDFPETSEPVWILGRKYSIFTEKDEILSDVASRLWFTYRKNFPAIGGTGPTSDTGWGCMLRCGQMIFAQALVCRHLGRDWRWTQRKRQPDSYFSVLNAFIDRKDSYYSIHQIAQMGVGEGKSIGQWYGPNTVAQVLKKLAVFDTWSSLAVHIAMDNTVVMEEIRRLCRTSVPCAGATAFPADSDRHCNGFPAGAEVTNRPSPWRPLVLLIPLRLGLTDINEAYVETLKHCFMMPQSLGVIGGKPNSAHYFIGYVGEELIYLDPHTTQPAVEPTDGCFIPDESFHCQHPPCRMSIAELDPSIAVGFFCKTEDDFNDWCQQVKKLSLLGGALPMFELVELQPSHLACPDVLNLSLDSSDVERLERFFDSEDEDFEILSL

Only a part is listed here, and it is no random draw. Some of these compounds have results that are not shown, active ones among them. Active and inactive are the calls of the source. No stated cut-off is given here; in the data, active means inhibition above about 40%; inactive means the rest.

The target in this test is Cysteine protease ATG4B (Homo sapiens) (UniProt Q9Y4P1). The test can be described thus: blockers of ATG4B cysteine protease activity – biochemical, fluorescence, uHTS, primary screen (AID 504462). The note with it: ATG4B cleavage of LC3-PLA2, NBD-HPC fluorescence, 1 h; at 8.33 µM; active compounds read high.
For the compound `O=C(OC1CN2CCC1CC2)C(CO)(c1ccccc1)c1ccccc1` (stereo not given), the inhibition was inactive: -2.3%.

Regarding `CN(C)c1cccc(C(=O)NCC2(N(C)C)CCCCC2)c1`, the inhibition is inactive: -0.47%.

Consider `O=C(OCCN1CCCC1)C(O)(c1ccccc1)c1ccccc1`, for which the inhibition was inactive: -11.7%.

On to `CC(C)Oc1ccc(C(=O)NCC2(N(C)C)CCCCC2)cc1`, for which the inhibition is inactive: 3.6%.

Regarding `COc1ccc(Br)c(C(=O)NCC2(N3CCCCC3)CCCCC2)c1`, the inhibition is inactive: -3.78%.

`COc1cc(C(=O)NCC2(N(C)C)CCCCC2)c([N+](=O)[O-])cc1OC`: the inhibition is inactive: -1.19%.

In the case of `CN(C)C1(CNC(=O)c2ccc(Br)cc2)CCCCC1`, the inhibition is inactive: -8.46%.

Consider `O=C(NCC1(N2CCCCC2)CCCCC1)c1cccc(Cl)c1`, for which the inhibition is inactive: -0.51%.

As to `COc1ccc(Cl)cc1C(=O)NCC1(N(C)C)CCCCC1`, the inhibition is inactive: 0.76%.

In the case of `COc1cccc(C(=O)NCC2(N3CCCCC3)CCCCC2)c1`, the inhibition was inactive: -7.52%.

With `CN(C)c1ccc(C(=O)NCC2(N(C)C)CCCCC2)cc1`, the inhibition was inactive: -2.39%.

With `CN(C)C1CCCC1OC(=O)C(O)(c1ccccc1)c1ccccc1` (stereo not given), the inhibition was inactive: 4.67%.

In the case of `Cc1ccccc1C(=O)NCC1(N2CCCCC2)CCCCC1`, the inhibition was inactive: -8.54%.

Consider `O=C(NCC1(N2CCCCC2)CCCCC1)c1cccc(Br)c1`, for which the inhibition was inactive: -11.8%.

Take `CCN1CCCC(OC(=O)C2(O)c3ccccc3C=Cc3ccccc32)C1` (stereo not given): the inhibition is inactive: -5.83%.

In the case of `Cc1cc(C(=O)NCC2(N3CCCCC3)CCCCC2)ccc1[N+](=O)[O-]`, the inhibition is inactive: -19.3%.

As to `COc1ccc(C(=O)NCC2(N(C)C)CCCCC2)cc1`, the inhibition is inactive: -3.32%.

With `O=C(NCC1(N2CCCCC2)CCCCC1)c1cc(F)c(F)cc1Cl`, the inhibition is inactive: 4.23%.

Regarding `C=CCN1CCN(CCOC(=O)C(O)(c2ccccc2)c2ccccc2)CC1`, the inhibition is inactive: 0.75%.

For the compound `CN1[C@@H]2CC[C@H]1CC(OC(=O)C(O)(c1ccccc1)c1ccccc1)C2` (stereo not given in full), the inhibition was inactive: 0.3%.

As to `O=C(NCC1(N2CCCCC2)CCCCC1)c1cc([N+](=O)[O-])ccc1Cl`, the inhibition was inactive: 6.83%.

On to `Cc1ccc(C(=O)NCC2(N3CCCCC3)CCCCC2)cc1`, for which the inhibition is inactive: 1.83%.

With `CC(C)N1C(=O)CC2(CCN(CCOC(=O)C(O)(c3ccccc3)c3ccccc3)CC2)C1=O`, the inhibition was inactive: -1.44%.

With `COc1cc(SC)ccc1C(=O)NCC1(N(C)C)CCCCC1`, the inhibition is inactive: -4.72%.

As to `CCN(CC)CC(C)C(C)OC(=O)C(O)(c1ccccc1)c1ccccc1` (stereo not given), the inhibition was inactive: -7.3%.
